Test results as given in publication PMC10619633 (Chemical Science, 2023).

Assay: Octanol/PBS partition coefficient
Type: physicochemical
Conditions: room temperature, PF6- salts
Method in brief: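 Partitioning measured between octanol and PBS; PBS replaced water to limit pH effects on log P. Complexes were tested as PF6− salts, whereas the biological assays used chloride salts.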

[Ru(Bphen)2(bpy-(NH CH 2CH2NH2)2-L)]2+(2PF6-).(L= N4-Succinoylsulfanilamide) [complex 5]
log P (octanol/PBS partition coefficient): greater than 1
